Tested on: implant-bone interface
Test: Removal torque of coated implants just after coating and after 3-year storage
Assay type: in vivo
Details: implant coated with 1 μg rhBMP-2 only
Experimental: In order to confirm the long-time storage stabilities of implant, osseointegration at implant-bone interface were measured via removal torque.
Each dental implant was coated with various bisphosphonates as described example 1 and its removal torque was measured just after coating step and 3-year self-storage, respectively.
Similarly, osseointegration at implant-bone interface were measured via removal torque for dental implants wherein the osteoclast activity inhibitor coating film further comprises a bone growth factor (BMP-2) as shown in Table 2.

B1: rhBMP-2 (protein, UniProt P12643 283-396, looked up)
Bone morphogenetic protein 2: QAKHKQRKRLKSSCKRHPLYVDFSDVGWNDWIVAPPGYHAFYCHGECPFPLADHLNSTNHAIVQTLVNSVNSKIPKACCVPTELSAISMLYLDENEKVVLKNYQDMVVEGCGCR
notes: bone growth factor, an osteogenic protein, coated on the implant
Storage period 0 year
  Removal torque: 108.2 ± 10.6
Storage period 3 year
  Removal torque: 104.9 ± 11.4
